Among the data in ChEMBL document CHEMBL1287644, “The novel benzopyran class of selective cyclooxygenase-2 inhibitors. Part III: the three microdose candidates” (Bioorg Med Chem Lett, 2010) are IC50 values, retold here.

By UniProt entry, the sequences of proteins in these tests, tags left out.
UniProt P23219, whole entry: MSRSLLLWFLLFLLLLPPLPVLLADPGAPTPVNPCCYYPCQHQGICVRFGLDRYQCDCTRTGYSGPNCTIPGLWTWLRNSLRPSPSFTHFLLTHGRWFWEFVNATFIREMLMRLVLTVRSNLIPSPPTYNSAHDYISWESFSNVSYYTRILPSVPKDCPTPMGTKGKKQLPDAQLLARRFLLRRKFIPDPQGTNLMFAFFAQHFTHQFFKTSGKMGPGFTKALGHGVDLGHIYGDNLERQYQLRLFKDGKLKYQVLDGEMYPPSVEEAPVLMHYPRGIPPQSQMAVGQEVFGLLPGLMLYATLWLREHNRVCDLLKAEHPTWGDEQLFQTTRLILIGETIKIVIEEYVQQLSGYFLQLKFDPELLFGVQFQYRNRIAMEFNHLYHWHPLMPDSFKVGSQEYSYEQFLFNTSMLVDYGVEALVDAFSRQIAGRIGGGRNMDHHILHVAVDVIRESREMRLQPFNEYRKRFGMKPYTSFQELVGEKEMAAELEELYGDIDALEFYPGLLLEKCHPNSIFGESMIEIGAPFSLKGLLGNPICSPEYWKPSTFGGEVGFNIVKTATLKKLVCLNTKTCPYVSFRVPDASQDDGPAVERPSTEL

In this test the target is Prostaglandin G/H synthase 1 (Homo sapiens, UniProt P23219). Put plainly: Inhibition of human COX-1.

Each structure is given as a SMILES string.

By IC50 is commonly meant the point on the concentration scale where inhibition reaches its midpoint. Low readings indicate greater potency in that assay, high ones weaker potency in that assay. Take `Cc1c(Cl)cc2c(c1C)O[C@H](C(F)(F)F)C(C(=O)O)=C2`: half-maximal inhibition (IC50) was put at 4.99 µM.
The compound `Cc1c(Cl)cc2c(c1C)OC(C(F)(F)F)C(C(=O)O)=C2` (configuration not stated) returned an IC50 of 36.3 µM.
